Experiments:
JNK [1] = assay: JNK activity in HUVEC (GST-jun solid phase assay); assay type: cell-based, human; conditions: 15 min; TNF 100 and 1000 U/ml, TNF70-80 1-50 μM
Procedure: The cells were lysed, and JNK activity was assayed using GST-jun (1-79) as a substrate. The data is presented as means+−sem of 3 experiments. […] The cells were lysed and the level of dual-phosphorylated ERK1/ERK2 was assessed by western blot analysis using the anti-ACTIVE ERK antibody (top panel). The blot was stripped and re-probed with an anti-ERK2 antibody (lower panel) to compare the level of ERK2 protein. The results are representative of 3 experiments, each conducted with cells from a different cord. […] The level of myelin basic protein phosphorylation was quantitated by an Instant Imager. Results are presented as the means+−sem of 3 experiments. Statistical analysis: significant difference between control and stimulated cells, *p<0.05.
Fresh human umbilical cords were obtained from consenting mothers according to the institution's guidelines on human ethics. […]
The cells were lysed in 200 μl of buffer A (20 mM HEPES, pH 7.4, 0.5% (v/v) Nonidet P-40, 100 mM NaCl, 1 mM EDTA, 2 mM Na3VO4, 2 mM dithiotbreitol, 1 mM phenylmethylsulfonyl fluoride, and 10 μg/ml leupeptin, aprotonin, pepstatin A, and benzamidine) for 2 h at 4° C. with constant mixing (20) After centrifugation (12,000 g×5 min), the supernatants were collected and the protein content of the lysates was determined by Lowry's method of protein determination. […]

JNK [2] = assay: JNK phosphorylation in HL60 cells (western blot); assay type: cell-based; conditions: 15 min; TNF 100 U/ml, anisomycin 2.5 μg/ml
p38 = p38 kinase activity in WEHI-164 cells; assay type: cell-based; conditions: 15 mins; TNF 1000 U/ml, TNF132-150 100 μg/ml
Procedure: The level of myelin basic protein phosphorylation was quantitated by an Instant Imager. A representative radiogram from the Instant Imager and pooled data (means±SEM of 3 experiments) are shown.
WEHI-164 cells were cultured in 28 cm^2 dishes to approx 80% confluence before the desired treatment. […] After washing twice with cold HBSS, cells were harvested by scraping and lysed in 400 μl of buffer A (20 mM HEPES, pH 7.4, 0.5% (v/v) Nonidet P-40, 100 mM NaCl, 1 mM EDTA, 2 mM Na3VO4, 2 mM dithiothreitol, 1 mM phenylmethylsulfonyl fluoride, and 10 μg/ml Sigma 104, leupeptin, aprotonin, pepstatin A, and benzamidine) for 2 h at 4° C. with constant mixing (Hii et al. (1998) J Biol Chem. 273(30):19277-82). After centrifugation (12,000 g×5 min), the supernatants were collected and the protein content of the lysates was determined by Lowry's method of protein determination. A solid phase assay using glutathione-S-transferase (GST)-conjugated-jun (1-79) was employed to assay JNK activity (Hii et al. (1998) J Biol Chem. 273(30):19277-82) GST-jun (1-79) was fractionated on 12% SDS polyacrylamide gels and the bands were detected and radioactivity determined using an Instant Imager (Packard Instruments, Canberra, Australia). […]

For “TNF: Human recombinant TNF produced by Genentech, Inc.”, which “activity of JNK in HUVEC” value (JNK [1]) is on record?
Its value is “increased”.

What about the “JNK phosphorylation in HL60 cells” value (JNK [2]) of the same substance?
Its value is “increased JNK phosphorylation”.

What about the “activity of p38 in WEHI-164 cells” value (p38) of the same substance?
Its value is “increased”.
